Assay: LogP by shake-flask method (n-octanol/phosphate buffer)
Details: n-octanol/phosphate buffer 50 mM pH 7.4
Procedure: using the "shake-flask" method.[6],[7] In short, phosphate buffer (50 mM, pH 7.4) was saturated with n-octanol by shaking a 1:1 mixture of both solution on a laboratory shaker for 72 h, after which the phases were separated. Stock solutions of each complex were then prepared in dimethylsulfoxide at a concentration of 10 mM. […]
(§1) solution with a concentration of 100 µM. From this solution, 1000 µL were transferred into an Eppendorf tube and mixed with 1000 µL of n-octanol. After shaking for 15 min and centrifugation (5 min, 6000 rpm), the two phases were carefully separated, and the contact layer discarded. Then, the absorbance of each phase was recorded with an Agilent 8453 UV/Vis spectrometer.
as §1, with “2 mL solution with” for “solution with”, “1000 µL phosphate buffer. After shaking” for “1000 µL of n-octanol. After shaking”, “rpm), the phases were” for “rpm), the two phases were”

[Ir(triazolatoC6H5,biotin)(ppy)(terpy]PF6 [Compound 18]
LogP: 0.14

[Au(triazolatoC6H5,biotin)(PPh3)] [Compound 12]
LogP: highly lipophilic^a

From paper PMC7616682 (Journal of biological inorganic chemistry : JBIC : a …, 2024)
